According to PubChem BioAssay AID1714 (Vanderbilt High Throughput Screening Facility, 2009):
About 1,800 (49%) of roughly 3,700 compounds were called active. The set was probably picked from earlier hits. All entries are inconclusive by the source's own rule. Clear calls are listed elsewhere.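 Rule for the calls: active = thallium entry rate above the same plate's blocked-transporter control wells by more than 3 SD; inconclusive = the two repeat wells disagree; inactive = the rest.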

Assay: KCC2 HEK cell Tl+ influx single-dose follow-up with bumetanide block (AID 1714);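 note: raw slope of fluorescence over initial fluorescence between 10 and 20 s after thallium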
Conditions: HEK293-KCC2 + bumetanide/ouabain, thallium flux FluoZin2; at 10 µM; stronger effect = higher value
Method in brief: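 Test system: HEK cells expressing the K-Cl cotransporter KCC2 | Compound: One dose, 10 µM, 0.1% DMSO | Replication: Duplicates | Evaluation: Normalized thallium flux slope | Detection: FluoZin2-AM (0.5 µM) fluorescence, 480 nm ex/540 nm em, 1 Hz kinetic imaging | Incubation: Overnight culture 37 °C, dye loading 48 min | Reagent: Thallium stimulus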

SMILES | normalized thallium flux
O=P(Nc1nc2ccc(Cl)cc2s1)(c1ccccc1)c1ccccc1 | inconclusive: 0.00546
